# Results from publication PMC5259792, “A new serotonin 5-HT6 receptor antagonist with procognitive activity – Importance of a halogen bond interaction to stabilize the binding” (Scientific Reports, 2017).
# Chains of the proteins cited; added tags and fusions are not shown.
# UniProt P50406, whole entry: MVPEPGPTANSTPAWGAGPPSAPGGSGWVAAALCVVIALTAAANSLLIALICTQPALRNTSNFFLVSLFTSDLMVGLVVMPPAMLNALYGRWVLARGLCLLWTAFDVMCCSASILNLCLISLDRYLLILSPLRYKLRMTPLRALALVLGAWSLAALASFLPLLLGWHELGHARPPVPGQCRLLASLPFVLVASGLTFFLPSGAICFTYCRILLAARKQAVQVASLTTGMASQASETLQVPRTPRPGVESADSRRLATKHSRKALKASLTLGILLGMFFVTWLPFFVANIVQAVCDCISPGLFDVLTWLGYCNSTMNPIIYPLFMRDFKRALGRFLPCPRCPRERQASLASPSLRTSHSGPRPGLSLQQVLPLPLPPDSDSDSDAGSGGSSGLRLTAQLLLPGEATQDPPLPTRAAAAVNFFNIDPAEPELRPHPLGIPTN
# Target: human 5-HT6R (Homo sapiens, UniProt P50406)
# Experiment: 5-HT6R radioligand competitive binding assay ([3H]LSD)
# Details: read-out: Ki ± SEM (5-HT6R), membranes of transfected HEK-293 cells, mean of two to four experiments in triplicate
row,Compound,Ki
1,O=C(Nc1ccccc1)c1ccc2c(c1)ncn2CCN1CCCCC1,> 500 nM
2,O=C(Nc1ccccc1)c1ccc2ncn(CCN3CCCCC3)c2c1,> 500 nM
3,CC(C)N(CCn1cnc2ccc(C(=O)Nc3ccccc3)cc21)C(C)C,> 500 nM
4,CC(C)N(CCn1cnc2cc(C(=O)Nc3ccccc3)ccc21)C(C)C,> 500 nM
